The numbers were not newly measured in patent publication US12465608B2, “Osimertinib for use in the treatment of non-small cell lung cancer” (AstraZeneca AB, priority 2019, dated 2025), which cites them from elsewhere.

Data set [1] relates to patients with EGFR mutation-positive NSCLC. Conditions: first line treatment.
For data set [2], the system named is patients with advanced mutation-positive EGFR (Ex19del or L858R) NSCLC. As to conditions: first-line therapy, FLAURA.

As for `COc1cc2ncnc(Nc3ccc(F)c(Cl)c3)c2cc1OCCCN1CCOCC1` [gefitinib], in data set [1], the “median PFS” value was 9.2 months. For the same compound, in data set [2], the “median progression free survival (PFS)” value was 10.2 months.
